From patent US9694016B2 (Novartis AG, priority 2013, dated 2017)

Chains of the proteins cited; added tags and fusions are not shown.
UniProt P04049, whole entry Y340E/Y341E: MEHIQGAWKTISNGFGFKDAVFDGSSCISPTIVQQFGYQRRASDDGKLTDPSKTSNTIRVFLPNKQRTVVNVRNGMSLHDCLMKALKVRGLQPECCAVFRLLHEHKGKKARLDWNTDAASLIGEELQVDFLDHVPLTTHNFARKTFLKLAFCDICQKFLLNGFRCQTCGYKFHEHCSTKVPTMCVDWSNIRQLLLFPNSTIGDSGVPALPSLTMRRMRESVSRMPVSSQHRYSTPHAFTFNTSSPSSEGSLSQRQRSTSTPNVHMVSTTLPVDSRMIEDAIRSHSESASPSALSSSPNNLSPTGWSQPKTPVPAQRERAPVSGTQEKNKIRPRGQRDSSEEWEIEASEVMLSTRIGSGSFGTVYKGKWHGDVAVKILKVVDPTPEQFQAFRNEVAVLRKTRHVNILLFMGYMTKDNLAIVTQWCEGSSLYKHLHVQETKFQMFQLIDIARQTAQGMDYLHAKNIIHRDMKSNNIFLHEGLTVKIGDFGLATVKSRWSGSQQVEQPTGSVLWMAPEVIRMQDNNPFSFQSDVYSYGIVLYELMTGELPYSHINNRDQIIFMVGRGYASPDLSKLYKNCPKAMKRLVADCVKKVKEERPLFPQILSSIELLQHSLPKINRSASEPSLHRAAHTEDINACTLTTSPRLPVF

molecular target: C-Raf FL (full-length C-Raf protein, Y340E and Y341E activating mutations) (Homo sapiens (Human), UniProt P04049, Y340E/Y341E); assay type: biochemical; settings: AlphaScreen, 60 min pre-incubation, reaction 1 hour at room temperature; read-out: c-Raf FL IC-50

| IC50 [nM] | SMILES |
| --- | --- |
| 0.2 | Cc1ccc(NC(=O)c2ccnc(C(F)F)c2)cc1-c1cc(N2CCOCC2)c2nccn2c1 [Example 850, 2-(difluoromethyl)-N-(4-methyl-3-(8-morpholinoimidazo[1,2-a]pyridin-6-yl)phenyl)isonicotinamide] |
| 0.3 | Cc1ccc(NC(=O)c2ccnc(S(C)(=O)=O)c2)cc1-c1cc(N2CCOCC2)c2nccn2c1 [Example 851] |
| 0.2 | Cc1ccc(NC(=O)c2cnnc(C(F)(F)F)c2)cc1-c1cc(N2CCOCC2)c2nccn2c1 [Example 852] |
| 0.4 | Cc1ccc(NC(=O)c2ccnc(C(C)(C)C#N)c2)cc1-c1nc2c(c(N3CCOCC3)n1)S(=O)(=O)CC2 [Example 855, 2-(2-cyanopropan-2-yl)-N-(4-methyl-3-(4-morpholino-5,5-dioxido-6,7-dihydrothieno[3,2-d]pyrimidin-2-yl)phenyl)isonicotinamide] |
| 1 | Cc1ccc(NC(=O)c2ccnc(C(F)F)c2)cc1-c1nc2c(c(N3CCOCC3)n1)S(=O)(=O)CC2 [Example 856, 2-(difluoromethyl)-N-(4-methyl-3-(4-morpholino-5,5-dioxido-6,7-dihydrothieno[3,2-d]pyrimidin-2-yl)phenyl)isonicotinamide] |
| 0.08 | Cc1ccc(NC(=O)c2cccc(C(F)(F)F)c2)cc1-c1nc2c(c(N3CCOCC3)n1)S(=O)(=O)CC2 [Example 857, N-(4-methyl-3-(4-morpholino-5,5-dioxido-6,7-dihydrothieno[3,2-d]pyrimidin-2-yl)phenyl)-3-(trifluoromethyl)benzamide] |
| 0.7 | Cc1ccc(NC(=O)c2ccnc(C(C)(C)C#N)c2)cc1-c1cn2ccnc2c(N2CCOCC2)n1 [Example 860, 2-(2-cyanopropan-2-yl)-N-(4-methyl-3-(8-morpholinoimidazo[1,2-a]pyrazin-6-yl)phenyl)isonicotinamide] |
| 0.6 | Cc1ccc(NC(=O)c2ccnc(C(C)(C)C#N)c2)cc1-c1nc(N2CCOCC2)c2c(cnn2C)n1 [Example 861, 2-(2-cyanopropan-2-yl)-N-(4-methyl-3-(1-methyl-7-morpholino-1H-pyrazolo[4,3-d]pyrimidin-5-yl)phenyl)isonicotinamide] |
| 0.3 | Cc1ccc(NC(=O)c2ccnc(C(C)(C)C#N)c2)cc1-c1nc(N2CCOCC2)c2sccc2n1 [Example 862, 2-(2-cyanopropan-2-yl)-N-(4-methyl-3-(4-morpholinothieno[3,2-d]pyrimidin-2-yl)phenyl)isonicotinamide] |
| 0.6 | Cc1ccc(NC(=O)c2ccnc(C(C)(C)C#N)c2)cc1-c1nc(N2CCOCC2)c2[nH]ccc2n1 [Example 863, 2-(2-cyanopropan-2-yl)-N-(4-methyl-3-(4-morpholino-5H-pyrrolo[3,2-d]pyrimidin-2-yl)phenyl)isonicotinamide] |
| 24 | Cc1ccc(NC(=O)c2ccnc(C(C)(C)C#N)c2)cc1-c1nc2c(c(N3CCOCC3)n1)CN(C(=O)OC(C)(C)C)CC2 [Example 864, tert-butyl 2-(5-(2-(2-cyanopropan-2-yl)isonicotinamido)-2-methylphenyl)-4-morpholino-7,8-dihydropyrido[4,3-d]pyrimidine-6(5H)-carboxylate] |
| 7900 | Cc1ccc(NC(=O)c2ccnc(C(C)(C)C#N)c2)cc1-c1nc2c(c(N3CCOCC3)n1)CCNC2 [Example 865, 2-(2-cyanopropan-2-yl)-N-(4-methyl-3-(4-morpholino-5,6,7,8-tetrahydropyrido[3,4-d]pyrimidin-2-yl)phenyl)isonicotinamide] |
| 2 | Cc1ccc(NC(=O)c2ccnc(C(C)(C)C#N)c2)cc1-c1nc2c(c(N3CCOCC3)n1)CNC2 [Example 866, 2-(2-cyanopropan-2-yl)-N-(4-methyl-3-(4-morpholino-6,7-dihydro-5H-pyrrolo[3,4-d]pyrimidin-2-yl)phenyl)isonicotinamide] |
| 0.2 | Cc1ncc(NC(=O)c2ccnc(C(C)C)c2)cc1-c1cc(N2CCOCC2)c2nccn2n1 [Example 869, 2-isopropyl-N-(6-methyl-5-(8-morpholinoimidazo[1,2-b]pyridazin-6-yl)pyridin-3-yl)isonicotinamide] |
